Screens from PubChem BioAssay.
SIRT5 inh – sirtuin-5 (human) deacylase inhibition. Q9NXA8. AID 652115. inhibition, % at 15 µM. actives 1.1% (n = 330,000). Purified SirT5, succinyl-peptide AMC, trypsin-coupled fluorescence; in the data active means inhibition above about 15%
Yeast UUG start – modulators of yeast start codon fidelity, primary screen, whole organism, S. cerevisiae, single point, plate reader | AID 602363, 2012 | actives 0.13% (n = 350,000) | activity score, % at 18.7 µM | S. cerevisiae UUG-firefly luciferase reporter, luminescence/redox ratio;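 active means replicate mean at a twofold rise or more, about +100% in these data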;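 further: firefly luciferase made from a UUG start codon reports start codon fidelity; reporter light over untreated wells divided by growth signal over untreated wells; some hits fall short of that in this replicate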
RAD52 anneal inh – RAD52 (human) annealing inhibition | AID 651710 | P43351 | actives 0.46% (n = 360,000) | inhibition, % at 18.7 µM | recombinant RAD52 DNA annealing, FRET fluorescence;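 active means every replicate showing at least 50% inhibition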
E-selectin induc – induces E-selectin expression in human endothelial cells | HUVEC E-selectin immunofluorescence imaging; normalized: neutral wells 0, TNF-alpha wells 100 | activation, % at 7.58 µM | actives 0.37% (n = 260,000) | AID 686992;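 active means mean E-selectin-positive cell signal at least 10% of the positive control, reached in at least 60% of replicates, without over 20% cell loss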
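Read-out basis: % PE-positive cells; Test system: HUVEC primary endothelial cells; Technique: immunofluorescence imaging; Dosing: single-point compound dose.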
RAD54 inh – blocks human RAD54 Holliday junction branch migration; actives 0.14% (n = 360,000); FAM/BHQ fluorescence; inhibition, % at 10.4 µM; Q92698;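 active means mean normalized replicate activity at least 40 and at least half of replicates scoring 40 or more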;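 further: inhibitors cause a drop in the FAM fluorescence signal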
AF4-AF9 inh – blocks AF4 peptide binding to human AF9. P42568. AlphaScreen, biotin-AF4 peptide binding to FLAG-AF9. inhibition, % at 10 µM. actives 0.47% (n = 350,000). AID 651704;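 active means every replicate reaching a set inhibition limit, whatever the replicate mean, cut at about 25% in these data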
A number is an active result; n = inactive; x = no result given. This is a sample that favours compounds with a hit; in the whole collection about 1.8% have one here.

SMILES	SIRT5 inh	Yeast UUG start	RAD52 anneal inh	E-selectin induc	RAD54 inh	AF4-AF9 inh
CCOC(=O)c1ccc(N=c2scc(C)n2CC)cc1	n	n	n	x	n	26.1
CCOC(=O)c1ccc(N=NN(C)C)cc1	n	x	n	x	x	n
C[C@H](NC(=O)C[C@@H]1C[C@H]2c3cc(NS(=O)(=O)c4ccc(F)cc4)ccc3O[C@H]2[C@H](CO)O1)c1ccccc1	n	x	n	n	n	n
Cc1ccc2c(C)c(C(=O)N(Cc3ccc(N(C)C)cc3)C3CCS(=O)(=O)C3)oc2c1 (stereo not given)	n	n	n	n	n	38.1
Cc1ccc2oc(C(=O)N(Cc3ccc(N(C)C)cc3)C3CCS(=O)(=O)C3)c(C)c2c1 (stereo not given)	n	n	n	n	n	n
CC(C)NC(=O)Nc1ccc2c(c1)C(=O)N([C@H](C)CO)C[C@H](C)[C@@H](CN(C)C(=O)NC(C)C)OCCCC[C@@H](C)O2	n	x	n	x	n	n
CC(C)NC(=O)N1CCCCN2[C@@H](CO)[C@H](c3ccc(C#Cc4ccccc4)cc3)[C@@H]2C1	n	n	n	n	n	n
CCCCCCNC(=O)c1ccc(Br)o1	32.2	n	n	n	n	n
O=C(NCCCCc1ccccc1)c1ccc(Br)o1	x	n	x	x	n	x
C[C@@H]1CCCCO[C@@H](CN(C)Cc2ccc3c(c2)OCO3)[C@H](C)CN([C@@H](C)CO)C(=O)c2cc(NC(=O)c3ccccc3)ccc2O1	n	n	n	n	n	n
Cc1nc2nc(C)n(CCN3CCOCC3)c(=O)c2c(-c2cccc([N+](=O)[O-])c2)c1C(=O)CCCCCCCCCCN1CCC(c2ccccc2)(c2ccccc2)CC1	n	x	96.8	n	x	n
CC1=CC(C)(C)n2c(O)c(N=N)c3cc(C)cc1c32	n	n	n	n	n	25.9
C[C@@H]1CCCCO[C@@H](CN(C)C(=O)Nc2cccc3ccccc23)[C@H](C)CN([C@H](C)CO)C(=O)c2cc(NC(=O)Nc3ccc4c(c3)OCO4)ccc2O1	n	n	n	n	n	n
C[C@@H]1CN([C@H](C)CO)C(=O)c2cc(N(C)C)ccc2O[C@@H]1CN(C)Cc1ccc(Cl)c(Cl)c1	n	n	n	n	n	27.9
C[C@H](CO)N1C[C@H](C)[C@H](CN(C)Cc2ccc(Cl)c(Cl)c2)Oc2ccc(N(C)C)cc2CC1=O	n	n	n	n	n	n
C[C@@H]1CN([C@@H](C)CO)C(=O)c2cc(N(C)C)ccc2O[C@@H]1CN(C)Cc1ccc(Cl)c(Cl)c1	n	n	n	n	n	32.9
C[C@@H]1CN([C@H](C)CO)C(=O)c2cc(N(C)C)ccc2O[C@H]1CN(C)Cc1ccc(Cl)c(Cl)c1	n	n	n	n	n	28.4
COc1cccc(-c2cnc3c(c2)C(=O)N([C@@H](C)CO)C[C@H](C)[C@H](CN(C)C(=O)CN(C)C)O3)c1	n	n	n	n	n	n
C[C@H]1CN([C@@H](C)CO)C(=O)c2cc(C#CCN(C)C)cnc2O[C@H]1CN(C)C(=O)c1cccc(F)c1	n	n	n	n	n	n
C[C@@H]1CCCCO[C@@H](CN(C)S(=O)(=O)c2ccc(Cl)cc2)[C@@H](C)CN([C@@H](C)CO)C(=O)c2cc(NS(=O)(=O)c3ccccc3)ccc2O1	n	x	n	n	x	n
C[C@@H]1CN([C@H](C)CO)C(=O)c2cc(NS(=O)(=O)c3ccc(Cl)cc3)ccc2O[C@@H](C)CCCCO[C@H]1CN(C)S(=O)(=O)c1ccccc1	18.6	x	n	n	x	n
C[C@H]1CCCCO[C@H](CN(C)S(=O)(=O)c2ccc(Cl)cc2)[C@@H](C)CN([C@@H](C)CO)C(=O)c2cc(NS(=O)(=O)c3ccccc3)ccc2O1	28.0	x	n	n	x	n
C[C@@H]1CN([C@H](C)CO)C(=O)c2cc(NS(=O)(=O)c3ccccc3)ccc2O[C@@H](C)CCCCO[C@@H]1CN(C)S(=O)(=O)c1ccc(Cl)cc1	n	n	n	n	n	n
Cc1ccccc1-c1ccc([C@H]2[C@@H](CO)N3CCCCN(C(=O)NC4CCCC4)C[C@@H]23)cc1	n	n	n	n	n	n
CO[C@@H]1CN(C)C(=O)c2ccc(NS(=O)(=O)c3ccc(Cl)cc3)cc2OC[C@H](C)N(C(=O)NC(C)C)C[C@@H]1C	n	n	n	n	n	n
